Reference: patent US7250397B2, “Antiarrhythmic peptides” (Zealand Pharma A/S, priority 2000, dated 2007)

Assay: In vitro stability test in rabbit plasma (heparin)
Format: in vitro ADME
Details: 37° C., 0.1 mg/ml, mean n=3
Experimental: The stability of peptides is analysed in different plasma and serum types. The peptides are incubated at 37° C. in plasma and samples taken at approx. 9 regular intervals between t=0 and t=156 min are analysed by HPLC.
This is done by subsequent injections of the drug, plasma, and a co-injection with the drug and the plasma, followed by optimisation of the LC method parameters until a satisfactory separation is obtained. Three parallel experiments are performed for each plasma type:100 μl of peptide is mixed with 900 μl plasma at t=0 and incubated at 37° C. (drug-plasma mixture conc. 0.1 mg/ml). Samples of 100 μl of the drug-plasma mixture are removed at appropriate intervals and the degradation stopped by precipitation of the sample with 10 μl MeCN:TFA 50:50 v/v. A control plasma sample without the drug treated in the same manner is also taken. The plasma samples are centrifuged for 15 min. at 12,000 rpm (Eppendorf centrifuge) at ambient temperature. The resulting supernatant solution is transferred to 300 μl HP autosamler vials and analyzed by HPLC. HPLC analysis are performed as follows: • Compound CE1 • Column: Vydac 218MS52, 250×2.1 mm, flow: 0.200 mL/min. Temp.: 40° C. • Solvent: MeCN/MQW/TFA (0.1%). Run time: 25 min. • Inj.vol.:15 μL. Detection: DAD1 A, 214.5 nm • Compound CE2 • Column: Kromasil KR100-10C8, 250×4.6 mm, flow: 1 mL/min. Temp.: 40° C. • Solvent: MeCN/MQW/TFA (0.1%). Run time: 20 min. • Inj.vol.:25 μL. Detection: VWD 1 A, 214.5 nm. • Except for rabbit serum: DAD1 A, 214.5 nm • Except for rat plasma: Solvent: MeOH/MQW/TFA (0.1%). Detection:VWD1 A, 210 nm • Compound CE3 • Column: Vydac 218MS52, 250×2.1 mm, flow: 0.200 mL/min. Temp.: 40° C. • Solvent: MeCN/MQW/TFA (0.1%). Run time: 35 min. • Inj.vol.:15 μL. Detection: DAD1 A, 214.5 nm • Compound 3 • Column: Kromasil KR100-10C8, 250×4.6 mm, flow: 1 mL/min. Temp.: 40° C. • Solvent: MeCN/MQW/TFA (0.1%). Run time: 25 min. • Inj.vol.:25 μL. Detection:DAD1 A, 214.5 nm • Compound 2 • Column: Luna 3u C18(2), 150×2 mm, flow: 0.250 mL/min.Temp.: 40° C. • Solvent: MeOH/MQW/HFBA (0.02%). Run time: 25 min. • Inj.vol.: 25 μL. Detection:DAD1 A, 214.5 nm. • Except for human plasma: Column: Luna 5u C18, 150×2 mm, Temp.: 10° C. • Except for human serum: Column: Kromasil KR100-10C8, 250×4.6 mm, • flow: 1 mL/min. Solvent: MeCN/MQW/TFA (0.1%). • Compound 27 • Column: Kromasil KR100-10C8, 250×4.6 mm, flow: 1 mL/min. Temp.: 40° C. • Solvent: MeCN/MQW/TFA (0.1%). Run time: 20 and 25 min. • Inj.vol.: 25 μL. Detection: VWD1 A, 214 nm • Compound 49 • Column: Kromasil KR100-10C8, 250×4.6 mm, flow: 1 mL/min. Temp.: 40° C. • Solvent: MeCN/MQW/TFA (0.1%). Run time: 25 min. • Inj.vol.: 25 μL. Detection: DADI A, 214.5 nm • Compound 48 180 • Column: Kromasil KR100-10C8, 250×4.6 mm, flow: 1 mL/min. Temp.: 40° C. • Solvent: MeCN/MQW/TFA (0.1%). Run time: 25 min. • Inj.vol.: 25 μL. Detection: DAD1 A, 214.5 nm
The samples are analyzed in the following order: blank, the peptide at 0.1 mg/mL, the plasma without the peptide, the three parallel samples for t=0, the three parallel samples for t=5 min. the three parallel samples for t=10 min. etc. And finally the three parallel samples for t=0 are repeated to make sure that there have been no degradation or other failure during the analyses. The sample concentrations (peak height in mAU) are plotted vs. time and fitted to a function describing a mono exponential decay (Excel). The half-life of the peptides in the different types of plasma are presented in Table 1 as mean (n=3)±standard deviation.

For “Ac-D-Tyr-D-Pro-D-4Hyp-Gly-D-Ala-Gly-NH2 [Compound 2]”, the T1/2 was >5 h.
